For two molecules, Ki results are on record in ChEMBL document CHEMBL3351783, “Structural insights into carbonic anhydrase IX isoform specificity of carbohydrate-based sulfamates” (J Med Chem, 2014).

The target of this assay is Carbonic anhydrase 9 (Homo sapiens, UniProt Q16790). Description: Inhibition of human recombinant carbonic anhydrase 9 by stopped-flow CO2 hydration assay.

A word on the Ki: it is a dissociation constant, usually derived from enzyme kinetics or from competition with a known ligand.

On to `CC(=O)OC[C@H]1O[C@@H](S(=O)(=O)N2CCC(OS(N)(=O)=O)CC2)[C@H](OC(C)=O)[C@@H](OC(C)=O)[C@@H]1OC(C)=O`, for which the Ki amounted to 2 nM.

On to `CC(=O)OC[C@H]1O[C@@H](S(=O)(=O)NCCOS(N)(=O)=O)[C@H](OC(C)=O)[C@@H](OC(C)=O)[C@@H]1OC(C)=O`, for which the inhibitory constant (Ki) is 215 nM.
